# Yeast mating assay B: variants of the scFv Ab-14

The target is the same throughout: PDVDLGDISGINAS, from the HR2 region of SARS-CoV-2 spike.

Each scFv is VH, three GGGGS repeats, VL, as in the parent Ab-14, and differs from it in the CDRs of the light chain only.
VH: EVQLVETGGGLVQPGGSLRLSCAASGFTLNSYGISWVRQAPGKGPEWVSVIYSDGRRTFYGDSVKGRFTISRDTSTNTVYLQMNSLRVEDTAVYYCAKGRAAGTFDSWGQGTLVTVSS
VL: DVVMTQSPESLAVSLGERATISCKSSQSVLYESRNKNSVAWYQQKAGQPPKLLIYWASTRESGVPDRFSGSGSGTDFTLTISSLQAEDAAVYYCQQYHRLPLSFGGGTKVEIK

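Phage display of a naive human antibody library on the peptide gave the parent. This is the validation round: designs drawn from the data on random variants, tested in the same kind of assay. Several design methods are mixed in this list. Affinity was read by AlphaSeq, a pooled yeast mating assay with surface-displayed partners. After mating in shaken culture at 30 °C for 16 h, diploids were selected and their barcode pairs sequenced. Each replicate has its own calibration line, from reference interactions of the BCL2 family. Mating was done six times.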

The parent's light chain CDRs are KSSQSVLYESRNKNSVA, WASTRES, QQYHRLPLS; each variant's own CDRs replace them letter for letter.
Values are log10 of the apparent Kd in nM; lower means stronger binding.
A mean of the replicates is given; it leaves out those without a signal.
Where no diploid with the target was found in any replicate, the entry reads "not detected": below detection, most likely a poor binder, though not proof of it.
Order: sorted from the lowest average up, undetected variants last.

| CDR-L1 | CDR-L2 | CDR-L3 | log10 Kd (nM), mean | seen in | empty controls |
|---|---|---|---|---|---|
| KSSISVLGESRNKNSVA | EASTRES | QQYHRLPLS | -0.22 | 6 of 6 | 0 of 18 |
| KSMFSVPGESRNKNSVA | EASTRES | QQYHRLPLS | -0.21 | 6 of 6 | 0 of 18 |
| HSSPSVLYESRNGNNVA | NASTRES | QQYHRLPLS | -0.19 | 6 of 6 | 3 of 18 |
| KMSQSVLFESRNKNSVA | DASTRES | QQYHRLPLS | -0.13 | 6 of 6 | 1 of 18 |
| KLSQSVLYESRNKNSVA | QASQRES | QQYHRLPLS | -0.06 | 6 of 6 | 3 of 18 |
| KLSQSVLYESRQKNSVA | NASTREQ | QQYHRLPLS | -0.05 | 6 of 6 | 3 of 18 |
| KSSYSTLYESGNKNSVA | HASTRED | QQYHRLPLS | 0.02 | 6 of 6 | 0 of 18 |
| KLSQSEGYESRNKNSVA | EASTRES | QQYHRLPLS | 0.02 | 6 of 6 | 2 of 18 |
| KSSISSLYESRNKNSVA | AASTRES | QQYHRLPLS | 0.10 | 6 of 6 | 0 of 18 |
| KLSQSVLYESRMKNSVA | NASTRES | QDYHRLPLS | 0.21 | 6 of 6 | 2 of 18 |
| KFSQSVLYESRNKNSVA | NASTRIA | QQYHRLPLS | 0.22 | 6 of 6 | 1 of 18 |
| KVRQSWLYESRNKNSVA | NASTRES | QQYHRLPLS | 0.22 | 6 of 6 | 1 of 18 |
| KLVNFMNRGTHHTSNIA | DAVNRID | QQYYRLPLA | 0.23 | 6 of 6 | 0 of 18 |
| KYSFSDLNESRNKNSVA | EASTRES | QQYHRLPLS | 0.29 | 6 of 6 | 0 of 18 |
| KMSQSEDYEERNCNAVA | NASQREE | QQYHRLPLS | 0.38 | 6 of 6 | 0 of 18 |
| KLSLVTGHMSMAKNNVA | EMVTREK | QQYNRLPLS | 0.41 | 6 of 6 | 0 of 18 |
| TISQVMNTLTRHGNNVA | DLQNRED | QQYFRLPLS | 0.42 | 6 of 6 | 0 of 18 |
| KISMTSENSLKNRNSVA | ELVTRMA | QQYNRLPLS | 0.47 | 6 of 6 | 0 of 18 |
| MVNGIMDHLSKQTNNVA | EMTTREE | QQYERLPLS | 0.48 | 6 of 6 | 3 of 18 |
| KSSQSFLYESRNVNSVA | GASTRCS | QQYHRLPLS | 0.48 | 6 of 6 | 0 of 18 |
| TVSQVTGLLQHNTNSVA | DMNTRGS | QQYDRLPLS | 0.49 | 6 of 6 | 1 of 18 |
| ALELEEMQMMKDINSIA | NTEYKTN | QQYVRLPFS | 0.59 | 6 of 6 | 2 of 18 |
| MVGQGLMGESRAKNSIA | QASLREE | QQYHRLPLI | 0.62 | 6 of 6 | 0 of 18 |
| KISQMVRVGSTHGNSIA | EEQTRAK | QQYHRLPLS | 0.64 | 6 of 6 | 0 of 18 |
| LLQGSEQYESRNKNSVA | DASTRES | QAYHRLPLS | 0.67 | 6 of 6 | 1 of 18 |
| KLSMTTEMEHVNRNSVA | ELVTRMR | QQYNRLPLS | 0.74 | 6 of 6 | 0 of 18 |
| QLYAVQDMTSKNSNSVA | EQSTREN | QQYHRLPLS | 0.75 | 6 of 6 | 0 of 18 |
| NFSQMVLTGSTLKNSVA | HAETREE | QQYHRLPLI | 0.76 | 6 of 6 | 0 of 18 |
| KLSQVTHSESRVKNSIA | EMVTREV | QQYDRLPLS | 0.78 | 6 of 6 | 0 of 18 |
| MLSDLVMQGSYYRNSVA | QESTRAD | QQYHHLPLS | 0.79 | 6 of 6 | 2 of 18 |
| QLEVFPLQAGSTYAAIA | DASHSTP | QQYARLPLM | 0.82 | 6 of 6 | 0 of 18 |
| KSSQSVWYESSQKNSVA | WASTRES | QQYHRLPLS | 0.92 | 6 of 6 | 0 of 18 |
| TISQMMQLFSQTINNVA | EVSTRLN | QQYDRLPLM | 1.31 | 6 of 6 | 1 of 18 |
| KSSQSVPYESSNKNSVA | WASTRES | QQYHRLPLS | 1.39 | 6 of 6 | 1 of 18 |
| HIGMATMSQETVRNSVA | NNSTRES | QQYDRLPLS | 1.40 | 6 of 6 | 1 of 18 |
| KSSQSVFIESSNKNSVA | WASTRES | QQYARLPGS | 1.40 | 5 of 6 | 0 of 18 |
| KSSQAVLYESRVKNSVA | WASTRES | QQYHRLPLS | 1.43 | 2 of 6 | 0 of 18 |
| MMSQVYGLGQRHRNNVA | QTSMREN | QQYDRLPLI | 1.45 | 6 of 6 | 0 of 18 |
| KSSQSVLGESRNKNSVA | WASTRES | QQYHRLILS | 1.65 | 6 of 6 | 1 of 18 |
| HITYGMMVHGRHSKSIA | QAETRAK | QQYDRLPLI | 1.73 | 5 of 6 | 0 of 18 |
| RIEILGDEVTQHYSNVA | EQHVTDM | QQYFRLPLS | 1.75 | 5 of 6 | 1 of 18 |
| KLSVSWLFESIEHNSVA | ERSTRES | QDYNRLPLS | 1.85 | 5 of 6 | 1 of 18 |
| HLMPLNLHYTGTLNSVA | EAEERQE | QHYARLPLM | 1.95 | 2 of 6 | 0 of 18 |
| KSSQSVLMESRNKNSVA | WASTRES | QQYHRLPLS | 2.20 | 4 of 6 | 0 of 18 |
| IVSQLMMWGLHASNSIA | EAVTRYN | QQYDRLPLF | 2.43 | 4 of 6 | 1 of 18 |
| KSSQSVLYESRNDNSVA | WASTRES | QQYHRLPLS | 2.46 | 3 of 6 | 1 of 18 |
| KSSQSVTYESRNKNSVA | WASTRVS | QQYHRLPLC | 2.52 | 2 of 6 | 0 of 18 |
| KLTQFYRMESRNKNSVA | DNSTRES | QDYDRLPLS | not detected | 0 of 6 | 1 of 18 |
| IVSQLMLWGMHVKNSIA | EAQTRLN | QQYERLPLF | not detected | 0 of 6 | 0 of 18 |
| KSSQSALYESRNKNSVA | WAMTRES | QQEHRLPLS | not detected | 0 of 6 | 0 of 18 |
| KSSYSVLYESRNKNSVA | WASTRES | FQGHRLPLS | not detected | 0 of 6 | 0 of 18 |

Excerpt, the final 6 entries:

| CDR-L1 | CDR-L2 | CDR-L3 | log10 Kd (nM), mean | seen in | empty controls |
|---|---|---|---|---|---|
| KSSQSVLYESRNDNSVA | WASTRES | QQYHRLPLS | 2.46 | 3 of 6 | 1 of 18 |
| KSSQSVTYESRNKNSVA | WASTRVS | QQYHRLPLC | 2.52 | 2 of 6 | 0 of 18 |
| KLTQFYRMESRNKNSVA | DNSTRES | QDYDRLPLS | not detected | 0 of 6 | 1 of 18 |
| IVSQLMLWGMHVKNSIA | EAQTRLN | QQYERLPLF | not detected | 0 of 6 | 0 of 18 |
| KSSQSALYESRNKNSVA | WAMTRES | QQEHRLPLS | not detected | 0 of 6 | 0 of 18 |
| KSSYSVLYESRNKNSVA | WASTRES | FQGHRLPLS | not detected | 0 of 6 | 0 of 18 |

The range of this assay differs from that of the first round, and the authors advise against merging the two.
The parent sequence was in this pool as ten entries: three were never detected, three once, and four in most replicates, with averages from 0.34 to 2.37.
Background: pairings of all light chain designs with three empty control strains gave a value in 4% of cases (median 2.64, 5th percentile 1.59). Values in that range, when seen in few replicates, are hard to tell from nonspecific mating. The control count says in how many pairings with the empty strains this scFv gave a signal.
In the paper, a design with two or fewer of six values counts as a poor binder.

From the AlphaSeq antibody data of Li et al. 2023 (doi:10.1038/s41467-023-39022-2), copy in the FLAb collection.